Measured values as given in ChEMBL document CHEMBL5338724, “METTL3 from Target Validation to the First Small-Molecule Inhibitors: A Medicinal Chemistry Journey” (J Med Chem, 2023).

Assay: Selectivity ratio of IC50 for inhibition of METTL3/METTL14 (unknown origin) to IC50 for inhibition of PRMT5/MEP50 (unknown origin)

Question: Which Ratio IC50 does the source give for `Cn1ccc(-c2cn([C@@H]3O[C@H](COc4ccc5ccc(N6CCC6)nc5c4)[C@@H](O)[C@@H]3F)c3ncnc(N)c23)n1` here?
Answer: > 100
